# AlphaSeq binding of Ab-14 heavy chain variants to a spike HR2 peptide

Reference: Li et al. 2023, doi:10.1038/s41467-023-39022-2. File: FLAb, binding data.

Target peptide (SARS-CoV-2 spike, HR2 region): PDVDLGDISGINAS

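The parent was found by panning a naive human phage display library on the peptide. These sequences belong to a second round, designed from the earlier measurements on random variants of the parent. Several design methods are mixed in this list. The assay is AlphaSeq: two haploid yeast populations carry antibody and antigen on their surface. Pairs that bind mate more often; barcode pairs of the diploids are counted by sequencing. Each replicate has its own calibration line, from reference interactions of the BCL2 family. There are six technical replicates.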

Each scFv is VH, the linker GGGGSGGGGSGGGGS, VL, as in the parent Ab-14, and differs from it in the CDRs of the heavy chain only.
VH: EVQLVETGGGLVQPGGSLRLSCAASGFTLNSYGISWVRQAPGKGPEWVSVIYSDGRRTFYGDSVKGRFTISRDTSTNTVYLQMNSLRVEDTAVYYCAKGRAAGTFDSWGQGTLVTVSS
VL: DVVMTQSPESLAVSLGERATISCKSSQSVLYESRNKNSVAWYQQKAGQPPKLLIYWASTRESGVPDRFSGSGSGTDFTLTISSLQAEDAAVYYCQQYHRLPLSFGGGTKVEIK

The parent's heavy chain CDRs are GFTLNSYGIS, VIYSDGRRTFYGDSVK, GRAAGTFDS; each variant's own CDRs replace them letter for letter. Scale: log10 of Kd in nM, estimated from mating counts; low values are strong binders. Where no diploid with the target was found in that replicate, the entry reads "n.d.": below detection, most likely a poor binder, though not proof of it.

log10 Kd (nM) by replicate,CDR-H1,CDR-H2,CDR-H3
n.d. 1.45 n.d. 1.31 1.79 n.d.,GFRINSYGIS,VIYSDGRRTAYGDSVK,GRAAGTFDL
n.d. 1.23 0.88 2.39 1.63 n.d.,GFTLNDYGIS,VIYSDGRRTWYSDSVK,GRAAGTFDS
n.d. n.d. n.d. n.d. n.d. n.d.,GFGLNEYGIS,VIYADGVRTAYLNNVK,GINSQFDWT
0.14 -0.81 n.d. 0.29 0.19 -1.11,GFDLNSYGIS,VIYSDGRRTFYSDSVK,GKVAGTFDS
n.d. n.d. n.d. n.d. n.d. n.d.,GFDIQEYGIS,VIYADGIRSAYIDNVK,GDTGSQFFE
n.d. n.d. n.d. n.d. n.d. n.d.,GFTLESYGIS,VIYHDGRRTFYGDSVK,GRAGGTFDS
1.21 0.97 0.76 1.13 1.14 0.91,GFDLNSYGIS,VIYSDGRRTFYVDSVK,GREAGTFDS
0.66 -0.04 0.11 -0.03 0.16 0.14,GFDIDEYGIS,VIYADGRRTYYADSVK,GTNAGTFDV
-0.31 -0.45 -0.33 -0.61 -0.27 -0.53,GFDLNEYGIS,VIYADGMRTAYSDDVK,GENAGTFDL
-0.17 -0.23 -0.38 -0.69 -0.87 -0.42,GFDLNEYGIS,VIYADGKRTAYTDSVK,GNVAGTFDQ
0.08 0.02 0.19 0.07 -0.30 0.25,GFDLNEYGIS,VIYADGRRTYYIDSVK,GETAGTFDS
n.d. n.d. n.d. n.d. n.d. n.d.,GNDLNEYGIS,VIYADGLRVMYANNVK,GQLDVVVLV
n.d. n.d. n.d. n.d. n.d. n.d.,GFDLNTYGIS,VIYSDGRRTFYGDSVK,GEAAGTFDT
-0.34 -0.67 -0.63 -0.71 -0.58 -0.48,GFDLNEYGIS,VIYADGRRTFYAESVK,GEAAGTFDV
n.d. n.d. n.d. n.d. n.d. n.d.,GFNFDEYGIS,VIYADGKRKAYSDSVK,GYSSGTMEV
0.79 1.28 0.83 1.08 1.19 0.97,GFTLNDYGIS,VIYSDGRRTFYGDSVK,GRAAGTFDK
0.06 -0.01 0.11 -0.09 -0.18 0.04,GFDLNEYGIS,VIYADGMRTAYADSVK,GNVAGTFVM
-0.32 -0.08 -0.46 -0.27 -0.20 -0.38,GFDLNEYGIS,VIYADGRRTFYTDSVK,GNVAGTFDV
-0.20 -0.21 -0.43 -0.30 -0.47 -0.28,GFELDEYGIS,VIYADGRRTFYADSVK,GEAAGTFDI
n.d. n.d. n.d. n.d. n.d. n.d.,GFNLNSYGIS,VIYSDGRRTFYGDQVK,GRAAGTFDS
-0.12 -0.06 -0.32 -0.45 -0.21 -0.18,GFDLNEYGIS,VIYADGKRTVYADSVK,GENAGTFDM
-0.73 -0.81 -1.05 -0.90 -0.99 -0.71,GFDLNEYGIS,VIYADGQRKAYADSVK,GNVAGTFDQ
0.22 0.00 -0.06 -0.42 -0.28 -0.20,GFDLNEYGIS,VIYADGMRTSYVDSVK,GENAGTFDV
0.14 0.14 -0.22 0.65 0.05 0.22,GFNLNSYGIS,VIYSDGRRTFYVDSVK,GNAAGTFDS
n.d. n.d. n.d. n.d. n.d. n.d.,GFTLNLYGIS,VIYSDGRRTFYGDSVK,GRAYGTFCS
1.40 0.83 n.d. 1.90 2.23 2.50,GFTLDSYGIS,VIYSDGRRTFYADRVK,GRAAGTFDV
-0.05 0.85 -0.03 -0.39 -0.02 -0.07,GFDLNSYGIS,VIYSDGRRTVYGDMVK,GREAGTFDS
-0.09 -0.32 -0.40 -0.61 -0.42 -0.34,GFDLNSYGIS,VIYSDGRRTFYGDGVK,GREAGTFDT
0.14 0.42 0.36 0.26 0.08 0.05,GFTLNEYGIS,VIYSDGRRTFYGDSVK,GRNAGTFDT
n.d. n.d. n.d. n.d. n.d. n.d.,GQDLNEYGIS,VIYADGHRTMYANDVK,GKQGGIFED
0.44 0.36 0.54 0.59 -0.14 0.25,GFTLNSYGIS,VIYADGRRTHYHDSVK,GKAAGTFDS
n.d. n.d. n.d. n.d. n.d. n.d.,GFDLNSYGIS,VIYSDGRRTFVGDSVK,GRAAGWFNS
-0.12 -0.20 -0.28 -0.24 -0.18 -0.18,GFALNSYGIS,VIYSDGRRTFYGDSVK,GNEAGTFDT
n.d. n.d. n.d. n.d. n.d. n.d.,GFTLNSYGIS,VIYSDGRRTFYSDSVK,HRAAITFDS
n.d. n.d. n.d. n.d. n.d. n.d.,GESLKEYGIS,VIYADGMRNAYVSKVK,GEVSGDFTI
0.21 0.29 0.02 0.17 -0.05 0.01,GFDLNEYGIS,VIYADGLRTAYSDSVK,GNVAGTFDI
n.d. n.d. n.d. n.d. n.d. n.d.,GHDINEYGIS,VIYADGKRSQYAQDVK,GQNVGQGTT
0.33 0.46 2.29 n.d. 0.43 1.07,GFTLNDYGIS,VIYSDGRRTFYGDSVK,GRYAGTFDS
2.75 n.d. n.d. n.d. n.d. n.d.,GFDLDEYGIS,VIYADGVRSQYHDSVK,GTGGFDIEL
-0.23 0.60 -0.08 -0.15 -0.38 0.83,GFDLNEYGIS,VIYADGMRTYYADSVK,GSNAGTFDI
-0.12 0.21 -0.10 -0.03 -0.31 -0.01,GFTLNEYGIS,VIYSDGRRTFYSDAVK,GRAAGTFDS
0.38 0.27 -0.48 -0.42 -0.10 -0.19,GFDLNEYGIS,VIYADGLRTSYIDSVK,GQLAGTFDQ
-0.07 -0.44 -0.11 -0.42 -0.70 0.15,GFTLTSPGIS,VIYSDGRRTFYGDSVK,GRAAGTFDT
n.d. 0.61 1.48 0.90 1.70 0.94,GFTLNSYGIS,VIYSDGRRTFYLDSVK,GQAAGTFDS

The closing 6 entries, repeated:

CDR-H1,CDR-H2,CDR-H3,log10 Kd (nM) by replicate
GFDLDEYGIS,VIYADGVRSQYHDSVK,GTGGFDIEL,2.75 n.d. n.d. n.d. n.d. n.d.
GFDLNEYGIS,VIYADGMRTYYADSVK,GSNAGTFDI,-0.23 0.60 -0.08 -0.15 -0.38 0.83
GFTLNEYGIS,VIYSDGRRTFYSDAVK,GRAAGTFDS,-0.12 0.21 -0.10 -0.03 -0.31 -0.01
GFDLNEYGIS,VIYADGLRTSYIDSVK,GQLAGTFDQ,0.38 0.27 -0.48 -0.42 -0.10 -0.19
GFTLTSPGIS,VIYSDGRRTFYGDSVK,GRAAGTFDT,-0.07 -0.44 -0.11 -0.42 -0.70 0.15
GFTLNSYGIS,VIYSDGRRTFYLDSVK,GQAAGTFDS,n.d. 0.61 1.48 0.90 1.70 0.94

Background: pairings of all heavy chain designs with three empty control strains gave a value in 1% of cases (median 2.08, 5th percentile 0.84). Values in that range, when seen in few replicates, are hard to tell from nonspecific mating. A sequence measured in both rounds can read differently, since the two assays cover different ranges. The authors averaged sequences with at least three values out of six and counted those with two or fewer as poor binders.